The values below are quoted from earlier work in patent publication US9962452B2, “Soluble complexes of drug analogs and albumin” (Zhuhai Beihai Biotech Co., Ltd., priority 2013, dated 2018).

The conditions of this series: Prijovich et al. 2003.

For 9-Aminocamptothecin glucuronide, under “active lactone ring form in blood”, the blood half-life result is given as “about 50 minutes”. The “lactone ring form at equilibrium in blood” value (blood) is given as “about 20%”.
